From PubChem BioAssay AID800 (PCMD, 2007)
This is a selection; strong and weak results do not stand in their true shares. Some of these compounds have results that are not shown, active ones among them. Activity calls are given as the source filed them. Rule as the data show it: active = inhibition above about 40%; inactive = the rest.

Chains of the proteins cited; added tags and fusions are not shown. Residues count along the entry.
UniProt P00748, 20-372 limits assumed: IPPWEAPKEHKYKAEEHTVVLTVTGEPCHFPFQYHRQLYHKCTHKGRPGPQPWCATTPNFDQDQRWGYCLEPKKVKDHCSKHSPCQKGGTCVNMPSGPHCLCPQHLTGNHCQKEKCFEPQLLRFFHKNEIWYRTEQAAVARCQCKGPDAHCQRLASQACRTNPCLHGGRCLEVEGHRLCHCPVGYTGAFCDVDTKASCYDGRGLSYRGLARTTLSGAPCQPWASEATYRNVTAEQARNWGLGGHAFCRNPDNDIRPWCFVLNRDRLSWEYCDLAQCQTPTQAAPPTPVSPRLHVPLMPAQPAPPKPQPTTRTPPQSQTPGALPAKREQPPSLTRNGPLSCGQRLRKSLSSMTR
UniProt P00748, 373-615 limits assumed: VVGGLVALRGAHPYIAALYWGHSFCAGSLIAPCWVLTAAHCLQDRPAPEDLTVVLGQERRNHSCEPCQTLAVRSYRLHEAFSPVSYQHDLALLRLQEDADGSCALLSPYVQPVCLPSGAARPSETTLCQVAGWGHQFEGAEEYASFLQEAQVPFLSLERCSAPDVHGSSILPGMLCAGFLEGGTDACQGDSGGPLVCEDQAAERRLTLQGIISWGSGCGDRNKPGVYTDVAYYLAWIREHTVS

Biological target: Coagulation factor XII (Homo sapiens) (UniProt P00748)
Test: human FXIIa protease inhibitors, primary screen, biochemical, 1536-well (AID 800);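 also: 0% = enzyme with no compound and 100% = blank without enzyme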
Conditions: purified FXIIa, Boc-QGR-AMC fluorogenic substrate, 2 h; at 5 µM; hits give high values

Compound	inhibition
CCN1CCCC(OC(=O)C2(O)c3ccccc3C=Cc3ccccc32)C1 (stereo unspecified)	inactive: 25.6%
C=CCN1CCN(CCOC(=O)C(O)(c2ccccc2)c2ccccc2)CC1	inactive: 9.5%
CN(C)C1CCCC1OC(=O)C(O)(c1ccccc1)c1ccccc1 (stereo unspecified)	inactive: 8.11%
Cc1ccccc1C(=O)NCC1(N2CCCCC2)CCCCC1	inactive: 6.72%
CCN(CC)CC(C)C(C)OC(=O)C(O)(c1ccccc1)c1ccccc1 (stereo unspecified)	inactive: 1.75%
CC(C)N1C(=O)CC2(CCN(CCOC(=O)C(O)(c3ccccc3)c3ccccc3)CC2)C1=O	inactive: 15.1%
O=C(NCC1(N2CCCCC2)CCCCC1)c1cc([N+](=O)[O-])ccc1Cl	inactive: 4.68%
CN(C)c1cccc(C(=O)NCC2(N(C)C)CCCCC2)c1	inactive: 8.36%
COc1ccc(Br)c(C(=O)NCC2(N3CCCCC3)CCCCC2)c1	inactive: 3.36%
O=C(OC1CN2CCC1CC2)C(CO)(c1ccccc1)c1ccccc1 (stereo unspecified)	inactive: 2.55%
COc1cccc(C(=O)NCC2(N3CCCCC3)CCCCC2)c1	inactive: 2.19%
